Assay: in vitro
Set-up: dose or concentration left out as unconfirmed
Conditions: mouse, liver microsomes

Row | Structure (SMILES) | CLint scaled at 4 h [mL/min/kg]
1 | CC(CF)c1ccc(CC(=O)N2CCN(c3ccc(C#N)nn3)CC2)cc1 (stereo not drawn) | 64.5
2 | CN(C)c1ccc(CC(=O)N2CCN(c3ccc(C#N)nn3)CC2)cc1 | 36.7
3 | CC(c1ccc(CC(=O)N2CCN(c3ccc(C#N)nn3)CC2)cc1)C(F)(F)F (stereo not drawn) | 301
